# Patent US7700654B2 (LTS Lohmann Therapie-Systeme AG, priority 2005, dated 2010)
# System: LNCaP cells
# Test: growth inhibition of human prostate carcinoma cells (cell counting)
# Assay type: cell-based
# Conditions: for proliferation of LNCaP cells versus untreated cells (FIG. 4): 100 μM
# Text: The growth of prostate cells and prostate cancer cells is originally dependent on androgens.
# The cells were trypsinized and counted using a counting cell chamber on the indicated days.
structure (smiles),measurement,setting,value
"CCCCNS(=O)(=O)c1ccccc1 [NBBS, N-butylbenzenesulfonamide]",growth of LNCaP cells (FIG. 4),"10 μM, day 8 of treatment",reduced growth
same,proliferation of LNCaP cells versus untreated cells (FIG. 4),day 5 of treatment,markedly slower proliferation than the untreated cells
same,proliferation of LNCaP cells versus untreated cells (FIG. 4),day 8 of treatment,even more prominent
